Measured values taken from patent US8222022B2, “Tri-functionalized cryptophane biosensors” (The Trustees of the University of Pennsylvania, priority 2008, dated 2012).

Test: Aqueous solubility (visual observation of precipitation, dissolution in aqueous base)
Details: 2 mM, 100 mM NaCl

pH to which the compound remained soluble: ~5.5
Substance: tri-triazole propionate cryptophane [TTPC]
